From patent US20040002117A1 (CBR INSTITUTE FOR BIOMEDICAL RESEARCH INC A MASSACHUSETTS, published 2004)

Biological target: calcineurin
Experiment: competition: inhibition of 125I-calcineurin (14 nM) binding to GST-NFAT1(1-400) on glutathione-Sepharose beads, filter wash, gamma counting

IC50 [µM] | Binder
~15 | SGPSPRIEITPSH (also called wild type 13-mer peptide; SPRIEIT-13) [wild type 13-mer SPRIEITPS peptide of murine NFAT1]
~15 | KPAGASGPSPRIEITPSHELMQAGGY (also called wild type 26-mer peptide; CM2 peptide) [wild type 26-mer SPRIEITPS peptide]
